The text below walks through data of patent US20250228861A1, “Cancer Treatments Using MTA-Cooperative PRMT5 Inhibitors” (AMGEN INC., priority 2022, published 2025).

Molecules are shown by their SMILES.

Data set [1] deals with HCT116 MTAP-null tumor xenografts. The settings on record: mouse, in vivo, po. The method, then:
FIG. 2: ELISA analysis of HCT116 MTAP WT and HCT116 MTAP-null contralateral tumor cells. […] Percentage of inhibition reported relative to matched vehicle. Data represent mean±SD, n=3 for each group.
Female Athymic Nude mice were implanted with HCT116 MTAP-null or MTAP WT tumors. […] Data represents group means±SEM, n=10. […] STATS: P values were determined by Linear Mixed-Effects Model with a Dunnett's comparison to control.

Data set [2] relates to DOHH-2 endogenous MTAP-null xenografts. The settings on record: mouse, in vivo, po, 100 mg/kg. The method, then:
FIG. 10. […] Female SCID mice were implanted with DOHH-2 or BxPC-3 tumors. […] Data represent group means±SEM, n=10. Terminal DOHH-2 or BxPC-3 tumors were collected for SDMA ELISA analysis. Data represent mean±SD, n=5 for each group. STATS: P values were determined by Linear Mixed-Effects Model with a Dunnett's comparison to control; **p<0.01, ****p<0.0001.
FIG. 11. […] (A-D.) Female SCID mice were implanted with DOHH-2 tumors. […] Mice were dosed orally (p.o.) once a day for ten days. Data represent group means±SEM, n=10. A.) Terminal DOHH-2 tumor volumes. […] C.) Disaggregated tumors were stained for γH2AX, MFI (mean florescent intensity). D.) Cardiac bleeds were performed and analyzed on ADVIA.

For `Cc1cc2cc(C(=O)N(Cc3ccc(C(F)(F)F)cn3)[C@@H](C)c3ncccn3)ccc2nc1N` [Compound B], the body weight entry in data set [1] is on record as “No effects on body weight observed”. Further, in data set [2], the “circulating blood cells (ADVIA)” value was “no effect on circulating blood cells”.
